This passage reports bioavailability results from patent publication US20260265240A1, “PREPARATION METHOD FOR SALT FORM AND CRYSTAL FORM OF 2,6-PIPERIDINEDIONE COMPOUND AND USE THEREOF” (ZHANGZHOU PIEN TZE HUANG PHARMACEUTICAL CO., LTD., priority 2023, published 2026).

A short description of the data set: Pharmacokinetic evaluation in beagle dogs. Type of data set: in vivo. Particulars: male, dog, plasma, po, intragastric administration 5 mg/kg, fed, read-out: Bioavailability F. The source says:
Male beagle dogs were selected as the experimental animals in this study. The LC/MS/MS method was employed to quantitatively determine the plasma drug concentrations at different time points after intravenous injection or intragastric administration of the test compound, aiming to evaluate the pharmacokinetic characteristics of the compound of formula (I) of the present disclosure in beagle dogs.
Beagle dogs (male, 7 to 10 kg, Beijing Mars Biotechnology Co., Ltd.).
A clear solution of the test compound was slowly injected intravenously into beagle dogs (fed) via the peripheral vein (vehicle: […]/10% Solutol/85% H2O), or administered intragastrically to beagle dogs (fed). For intravenous administration, 0.5 mL of blood was collected from the peripheral vein at 0.083, 0.25, 0.5, 1, 2, 4, 6, 8, and 24 h after administration, placed in EDTA-2K anticoagulant tubes, and centrifuged at 3200 g for 10 minutes at 2 to 8° C. to separate the supernatant. […] Plasma drug concentrations were determined by the LC-MS/MS method, and relevant pharmacokinetic parameters were calculated using Phoenix WinNonlin 6.3 pharmacokinetic software with non-compartmental model linear-log trapezoidal method.

Where a name gives a salt, the structure may show the parent alone.

Usually bioavailability stands for the share of a dose that reaches the circulation, judged against a reference dose that is usually intravenous. For `O=C1CCC(c2noc3ccc4c(NC(=O)CN5CCN(C[C@H]6CC[C@H](n7cc(NC(=O)c8coc(-c9ccnc(NCC%10CC%10)c9)n8)c(C(F)F)n7)CC6)CC5)cccc4c23)C(=O)N1` (stereo partly shown) [Hydrochloride of Compound of Formula (I)], the bioavailability is 72.6%.
